Test results taken from US20220371988A1, “TRPV1 AGONIST AND PREPARATION METHOD THEREFOR AND USE THEREOF” (NANJING DELOVA BIOTECH CO. LTD., priority 2019, published 2022).
Values after ≈ are worked out from the molar mass of the structure shown.

Assays:
[1] = system: rats as models of pain after incision; assay: Thermal hyperalgesia test (Hargreaves method) in rats as models of pain after incision; assay type: in vivo, SD rat; conditions: for Time after surgery at which thermal withdrawal latency (TWL) was increased vs blank preparation group (P<0.05): injection at incision site
[2] = Determination of solubility in water; conditions: 10 mg, water added in 0.1 mL portions, sonicated 5 min
[3] = system: rats as models of pain after incision; assay: Mechanical allodynia test (Von Frey method) in rats as models of pain after incision; assay type: in vivo, SD rat
[4] = system: nasal mucosa and perinasal skin of the rats; assay: Irritation test (2): nasal administration to rats; conditions: for Nasal scratching: times within 0-10 min / Nasal scratching: times within 10-30 min / Sneezing: times within 0-30 min / Sneezing: times within 10-30 min / Nasal cavity and nasal periphery: redness and swelling score: n = 4, X ± SD, 10 μL nasal; for Eye closure symptom / Hypokinesia symptom: rats, 10 μL into left nostril, observed 30 min, A-17 16.67 mg/mL, parent 10 mg/mL (equimolar); for Nasal cavity and nasal periphery: redness and swelling score: score 0-3
[5] = Clinical compatibility stability; conditions: for Character: 0-8 h
[6] = HD group: A-17 0.6 mg/animal, parent 0.36 mg/animal
[7] = LD group: A-17 0.15 mg/animal, parent 0.09 mg/animal
[8] = 0.9% sodium chloride injection (25° C.), 0 h
[9] = 0.9% sodium chloride injection (25° C.), 1 h
[10] = 0.9% sodium chloride injection (25° C.), 2 h
[11] = 0.9% sodium chloride injection (25° C.), 4 h
[12] = 0.9% sodium chloride injection (25° C.), 6 h
[13] = 0.9% sodium chloride injection (25° C.), 8 h
[14] = Glucose injection (25° C.), 0 h
[15] = Glucose injection (25° C.), 1 h
[16] = Glucose injection (25° C.), 2 h
[17] = Glucose injection (25° C.), 4 h
[18] = Glucose injection (25° C.), 6 h
[19] = Glucose injection (25° C.), 8 h

CCN(CC)CC(=O)Oc1ccc(CNC(=O)CCCC/C=C/C(C)C)cc1OC
Effect on overall thermal hyperalgesia (AUC of time-TWL curve) within 7 days vs blank preparation ([1]; HD group: A-17 0.6 mg/animal (P<0.001), parent 0.36 mg/animal (P<0.01)): can effectively relieve the overall thermal hyperalgesia | Duration of analgesic effect on thermal hyperalgesia [1, 6]: 4 days | Time after surgery at which thermal withdrawal latency (TWL) was increased vs blank preparation group (P<0.05) [1, 6]: 1 to 96 h | Duration of analgesic effect on thermal hyperalgesia ([1]; LD group: A-17 0.15 mg/animal): 1 days | Effect on overall thermal hyperalgesia (AUC of time-TWL curve) within 7 days vs blank preparation [1, 7]: no significant effect | Time after surgery at which thermal withdrawal latency (TWL) was increased vs blank preparation group (P<0.05) [1, 7]: 1 to 24 h | Duration of analgesic effect on thermal hyperalgesia ([1]; MD group: A-17 0.3 mg/animal): 3 days | Effect on overall thermal hyperalgesia (AUC of time-TWL curve) within 7 days vs blank preparation ([1]; MD group: A-17 0.3 mg/animal (P<0.001)): can effectively relieve the overall thermal hyperalgesia | Solubility ([2]; hydrochloride): 244 mg/mL (≈ 583 mM) | Solubility ([2]; oxalate): 175 mg/mL (≈ 418 mM) | Duration of analgesic effect on mechanical allodynia ([3]; HD group: A-17 0.6 mg/animal): 2 days | Time after surgery at which paw withdrawal threshold (PWT) was increased vs blank preparation group (P<0.05) [3, 7]: 1 h | Duration of analgesic effect on mechanical allodynia ([3]; MD group: A-17 0.3 mg/animal, starts at 24 h after surgery): 1 days | Nasal scratching: times within 0-10 min [4]: 13.50 ± 3.87 | Nasal scratching: times within 10-30 min [4]: 12.50 ± 7.19 | Sneezing: times within 0-30 min [4]: 7.50 ± 4.20 | Sneezing: times within 10-30 min [4]: 1.75 ± 0.96 | Eye closure symptom [4]: no eye closure or hypokinesia was observed | Hypokinesia symptom [4]: no eye closure or hypokinesia was observed | Nasal cavity and nasal periphery: redness and swelling score [4]: 0.75 ± 0.50 | Related substances: Capsaicine [5, 8]: 2.57 | Related substances: Total impurities [5, 8]: 6.25 | pH [5, 8]: 3.39 | Character ([5]; 0.9% sodium chloride injection (25° C.)): Clear liquid | Related substances: Capsaicine [5, 9]: 3.22 | Related substances: Total impurities [5, 9]: 6.9 | pH [5, 9]: 3.38 | Related substances: Capsaicine [5, 10]: 3.84 | Related substances: Total impurities [5, 10]: 7.52 | pH [5, 10]: 3.37 | Related substances: Capsaicine [5, 11]: 4.95 | Related substances: Total impurities [5, 11]: 8.59 | pH [5, 11]: 3.34 | Related substances: Capsaicine [5, 12]: 6.1 | Related substances: Total impurities [5, 12]: 9.77 | pH [5, 12]: 3.31 | Related substances: Capsaicine [5, 13]: 7.22 | Related substances: Total impurities [5, 13]: 10.89 | Related substances: Capsaicine [5, 14]: 2.69 | Related substances: Total impurities [5, 14]: 6.46 | pH [5, 14]: 3.30 | Character ([5]; Glucose injection (25° C.)): Clear liquid | Related substances: Capsaicine [5, 15]: 3.64 | Related substances: Total impurities [5, 15]: 7.41 | pH [5, 15]: 3.31 | Related substances: Capsaicine [5, 16]: 4.24 | Related substances: Total impurities [5, 16]: 8.00 | pH [5, 16]: 3.28 | Related substances: Capsaicine [5, 17]: 5.62 | Related substances: Total impurities [5, 17]: 9.38 | pH [5, 17]: 3.26 | Related substances: Capsaicine [5, 18]: 6.94 | Related substances: Total impurities [5, 18]: 10.7 | pH [5, 18]: 3.21 | Related substances: Capsaicine [5, 19]: 8.32 | Related substances: Total impurities [5, 19]: 12.02

COc1cc(CNC(=O)CCCC/C=C/C(C)C)ccc1OC(=O)CN(C)C
Solubility [2]: 70 mg/mL (≈ 179 mM)

COc1cc(CNC(=O)CCCC/C=C/C(C)C)ccc1O [trans-8-methyl-N-vanillyl-6-nonenamide]
Nasal scratching: times within 0-10 min [4]: 6.50 ± 4.36 | Nasal scratching: times within 10-30 min [4]: 19.25 ± 9.88 | Sneezing: times within 0-30 min [4]: 8.75 ± 44.65 | Sneezing: times within 10-30 min [4]: 7.25 ± 9.88 | Eye closure symptom [4]: eye closure symptom that lasts for about 1.4 min was observed in 1 rat | Hypokinesia symptom [4]: Hypokinesia symptom that lasts for 3-12 min was observed in 3 of the 4 rats | Nasal cavity and nasal periphery: redness and swelling score [4]: 2.25 ± 0.50
